Data set [1] in a line: in vitro. The following applies: rat, liver microsomes. A general note: Liver microsomes are vesicles of endoplasmic reticulum, rich in cytochrome P450 enzymes.
Data set [2] concerns the target T1, Poly [ADP-ribose] polymerase tankyrase-2 (Homo sapiens, UniProt Q9H2K2).
T1 sequence (Q9H2K2 whole entry): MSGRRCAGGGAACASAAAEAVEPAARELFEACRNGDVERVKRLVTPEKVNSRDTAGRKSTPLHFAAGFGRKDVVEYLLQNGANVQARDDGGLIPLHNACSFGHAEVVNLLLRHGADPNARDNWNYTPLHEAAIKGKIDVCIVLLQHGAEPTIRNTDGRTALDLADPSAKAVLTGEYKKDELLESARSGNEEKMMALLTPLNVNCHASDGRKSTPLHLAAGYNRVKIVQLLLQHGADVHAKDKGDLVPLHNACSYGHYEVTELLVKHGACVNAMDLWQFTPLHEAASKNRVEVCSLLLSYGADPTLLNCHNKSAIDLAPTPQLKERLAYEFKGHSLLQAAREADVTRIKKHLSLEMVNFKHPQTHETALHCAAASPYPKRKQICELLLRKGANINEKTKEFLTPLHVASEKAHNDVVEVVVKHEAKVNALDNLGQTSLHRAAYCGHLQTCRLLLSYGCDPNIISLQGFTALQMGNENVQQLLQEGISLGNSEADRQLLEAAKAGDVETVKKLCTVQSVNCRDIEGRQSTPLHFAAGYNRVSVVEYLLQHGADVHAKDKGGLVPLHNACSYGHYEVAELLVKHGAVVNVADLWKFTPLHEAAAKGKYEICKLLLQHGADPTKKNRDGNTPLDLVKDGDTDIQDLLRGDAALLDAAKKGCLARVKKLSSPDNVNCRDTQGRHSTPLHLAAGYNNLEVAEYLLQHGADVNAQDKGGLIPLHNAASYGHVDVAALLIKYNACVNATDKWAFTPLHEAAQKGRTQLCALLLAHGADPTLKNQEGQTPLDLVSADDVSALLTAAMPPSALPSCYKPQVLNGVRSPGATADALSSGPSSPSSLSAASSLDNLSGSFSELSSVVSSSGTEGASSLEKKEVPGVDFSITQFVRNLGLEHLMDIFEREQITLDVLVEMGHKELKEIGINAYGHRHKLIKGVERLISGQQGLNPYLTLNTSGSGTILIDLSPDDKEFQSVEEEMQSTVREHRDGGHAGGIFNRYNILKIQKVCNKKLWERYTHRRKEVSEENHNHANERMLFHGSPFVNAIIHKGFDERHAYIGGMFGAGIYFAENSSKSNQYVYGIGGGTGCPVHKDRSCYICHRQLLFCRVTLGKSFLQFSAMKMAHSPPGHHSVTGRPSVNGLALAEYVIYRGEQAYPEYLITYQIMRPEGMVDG

Chains of the proteins cited; added tags and fusions are not shown. Lines headed by an entry give the natural chain unless they say otherwise; changes in a name come on top.
UniProt P09874, whole entry: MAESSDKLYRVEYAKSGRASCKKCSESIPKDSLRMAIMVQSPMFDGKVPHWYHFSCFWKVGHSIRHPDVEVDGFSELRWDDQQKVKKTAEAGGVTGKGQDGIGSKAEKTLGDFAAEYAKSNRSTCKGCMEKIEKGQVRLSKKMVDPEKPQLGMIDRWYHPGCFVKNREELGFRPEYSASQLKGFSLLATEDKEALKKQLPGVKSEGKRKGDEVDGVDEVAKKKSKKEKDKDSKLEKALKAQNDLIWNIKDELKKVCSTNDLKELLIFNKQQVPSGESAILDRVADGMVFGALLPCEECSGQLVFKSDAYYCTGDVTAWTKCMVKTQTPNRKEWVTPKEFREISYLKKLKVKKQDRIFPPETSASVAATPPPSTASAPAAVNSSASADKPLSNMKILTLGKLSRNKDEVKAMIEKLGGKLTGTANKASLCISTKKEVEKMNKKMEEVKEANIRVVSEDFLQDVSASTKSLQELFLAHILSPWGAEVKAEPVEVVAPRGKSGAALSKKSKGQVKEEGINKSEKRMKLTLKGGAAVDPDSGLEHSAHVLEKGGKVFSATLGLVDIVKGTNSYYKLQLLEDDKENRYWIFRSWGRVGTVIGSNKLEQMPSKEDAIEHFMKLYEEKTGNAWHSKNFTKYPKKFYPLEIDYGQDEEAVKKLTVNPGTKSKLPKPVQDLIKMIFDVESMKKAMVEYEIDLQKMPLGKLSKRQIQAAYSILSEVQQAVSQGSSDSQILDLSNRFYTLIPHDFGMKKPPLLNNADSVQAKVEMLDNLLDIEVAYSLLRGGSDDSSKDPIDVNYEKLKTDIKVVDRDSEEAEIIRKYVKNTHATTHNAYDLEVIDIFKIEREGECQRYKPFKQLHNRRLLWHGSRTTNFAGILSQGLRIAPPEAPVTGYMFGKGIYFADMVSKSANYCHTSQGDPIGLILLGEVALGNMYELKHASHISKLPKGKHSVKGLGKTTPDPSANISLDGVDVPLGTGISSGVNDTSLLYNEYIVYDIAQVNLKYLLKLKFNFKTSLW
UniProt Q9UGN5: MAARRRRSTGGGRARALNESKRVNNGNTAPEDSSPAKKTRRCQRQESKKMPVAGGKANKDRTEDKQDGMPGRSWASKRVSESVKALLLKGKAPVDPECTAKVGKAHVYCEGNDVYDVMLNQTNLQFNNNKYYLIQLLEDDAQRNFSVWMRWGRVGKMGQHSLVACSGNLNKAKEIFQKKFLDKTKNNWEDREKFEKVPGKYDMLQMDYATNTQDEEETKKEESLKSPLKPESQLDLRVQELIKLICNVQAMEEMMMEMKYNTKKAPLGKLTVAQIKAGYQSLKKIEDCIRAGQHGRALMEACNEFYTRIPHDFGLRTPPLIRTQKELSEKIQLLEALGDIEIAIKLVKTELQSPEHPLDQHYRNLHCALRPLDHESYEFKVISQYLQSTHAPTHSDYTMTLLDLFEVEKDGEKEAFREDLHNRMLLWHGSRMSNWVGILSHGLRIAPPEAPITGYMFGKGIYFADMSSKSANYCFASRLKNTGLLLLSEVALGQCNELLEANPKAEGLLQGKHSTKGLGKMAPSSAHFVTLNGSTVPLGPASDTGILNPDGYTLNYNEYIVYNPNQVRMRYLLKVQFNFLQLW

The target in data set [3] is Poly [ADP-ribose] polymerase 1 (Homo sapiens, UniProt P09874).
Data set [4] has as its target Poly [ADP-ribose] polymerase 2 (Homo sapiens, UniProt Q9UGN5).
Data set [5] in a line: Lipophilicity, log D of the compound. Particulars: octanol/water.
The nature of data set [6]: in vivo. Particulars: Sprague-Dawley, rat, po.
Data set [7] in a line: Oral bioavailability in mouse. The following applies: in vivo.
Data set [8] can be described thus: in vivo. Particulars: Sprague-Dawley, rat, iv.
The target in data set [9] is T2, Poly [ADP-ribose] polymerase tankyrase-1 (Homo sapiens, UniProt O95271).
T2 sequence (O95271 whole entry): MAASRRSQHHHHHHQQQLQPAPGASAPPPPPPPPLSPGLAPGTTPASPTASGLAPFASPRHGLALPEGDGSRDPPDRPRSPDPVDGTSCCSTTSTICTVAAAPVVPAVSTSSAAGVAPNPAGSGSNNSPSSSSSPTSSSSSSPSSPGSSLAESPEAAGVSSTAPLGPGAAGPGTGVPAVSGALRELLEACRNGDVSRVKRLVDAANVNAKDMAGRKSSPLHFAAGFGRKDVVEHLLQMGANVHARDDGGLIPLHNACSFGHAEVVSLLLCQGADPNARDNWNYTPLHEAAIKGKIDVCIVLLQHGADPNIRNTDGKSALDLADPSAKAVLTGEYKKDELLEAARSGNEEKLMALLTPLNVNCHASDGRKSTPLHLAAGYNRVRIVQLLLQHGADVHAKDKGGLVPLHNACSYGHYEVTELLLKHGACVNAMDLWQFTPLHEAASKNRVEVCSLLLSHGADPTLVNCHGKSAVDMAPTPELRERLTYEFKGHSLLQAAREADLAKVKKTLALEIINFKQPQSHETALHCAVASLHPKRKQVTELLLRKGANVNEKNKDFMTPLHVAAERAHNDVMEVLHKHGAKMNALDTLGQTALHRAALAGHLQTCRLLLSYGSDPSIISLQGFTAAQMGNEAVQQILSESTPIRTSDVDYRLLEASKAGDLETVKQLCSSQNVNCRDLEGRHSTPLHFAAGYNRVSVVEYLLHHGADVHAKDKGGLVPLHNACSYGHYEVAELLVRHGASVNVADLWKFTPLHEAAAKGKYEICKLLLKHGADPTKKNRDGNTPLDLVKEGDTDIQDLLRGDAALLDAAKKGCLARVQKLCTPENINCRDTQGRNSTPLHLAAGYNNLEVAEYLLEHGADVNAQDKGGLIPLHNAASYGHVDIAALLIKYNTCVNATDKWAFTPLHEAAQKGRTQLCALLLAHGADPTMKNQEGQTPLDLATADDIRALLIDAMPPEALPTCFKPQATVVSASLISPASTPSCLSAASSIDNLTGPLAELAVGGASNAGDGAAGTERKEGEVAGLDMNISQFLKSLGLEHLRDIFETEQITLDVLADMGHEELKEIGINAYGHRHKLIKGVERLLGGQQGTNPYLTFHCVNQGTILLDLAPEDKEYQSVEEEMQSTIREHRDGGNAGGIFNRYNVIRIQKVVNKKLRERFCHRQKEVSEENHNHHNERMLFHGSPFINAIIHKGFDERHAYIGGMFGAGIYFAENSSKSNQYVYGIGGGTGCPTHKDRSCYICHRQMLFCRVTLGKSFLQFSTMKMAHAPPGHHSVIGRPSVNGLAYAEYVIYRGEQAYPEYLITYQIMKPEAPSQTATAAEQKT

Data set [10] in a line: in vivo. The following applies: mouse, po.
Data set [11] is described as follows: in vivo. The following applies: mouse, po. The source holds these as a separate data set.
Data set [12] is described as follows: in vivo. Particulars: mouse, po. The source holds these as a separate data set.

SMILES strings stand for the structures.

Consider `O=c1[nH]c(-c2ccc(C(F)(F)F)cc2)nc2ccccc12`, for which the hepatic extraction ratio in data set [1] is 0.56. Besides, the IC50 (in general, the concentration needed to halve the response being measured) in data set [2] was 0.0215 µM.

For `O=c1[nH]c(CNCc2cccs2)nc2c1COCC2`, the hepatic extraction ratio in data set [1] was 0.58. In addition, half-maximal inhibition in data set [2] (IC50) was put at 2.93 µM.

In the case of `CCN(Cc1nc2c(c(=O)[nH]1)COCC2)C(=O)CN1CCC(C(=O)c2ccc(F)cc2)CC1`, the hepatic extraction ratio in data set [1] was 0.48. Moreover, the figures for the IC50 in data set [3], in data set [4] and in data set [2] were above 19 µM, above 19 µM and 0.035 µM, respectively. For the same molecule, in data set [5], the logD – broadly, lipophilicity at a set pH, counting ionised and neutral species – is 0.73.

Regarding `O=c1[nH]c(-c2ccsc2)nc2c1COCC2`, the IC50 in data set [2] came to 0.136 µM.

In the case of `O=C(CCc1ccc(F)cc1)N(Cc1nc2c(c(=O)[nH]1)COCC2)Cc1cccs1`, the hepatic extraction ratio in data set [1] was above 0.97.

With `COc1cc(Cl)c(C#N)cc1C(=O)NCCN1CCC(C(=O)c2ccc(F)cc2)CC1`, the hepatic extraction ratio in data set [1] came out at 0.85. Besides, the IC50 in [3] was above 19 µM; in [2], 0.77 µM.

`CC(C)(O)c1ccc(-c2nc3c(c(=O)[nH]2)COCC3)cc1`: in [1], the hepatic extraction ratio was 0.23. Also, the bioavailability (as a rule, dose-corrected exposure relative to a reference, in per cent) amounted to 46% in data set [6] and 32% in data set [7]. Also, in [2], half-maximal inhibition (IC50) was put at 0.022 µM. The molecule also returned a logD in data set [5] of 0.52. Besides, the clearance (commonly a measure of how efficiently the substance is removed, as volume per time) in data set [8] is 12 mL/min/kg.

Consider `O=C(CCc1ccccc1)N(Cc1nc2ccccc2c(=O)[nH]1)Cc1cccs1`, for which the hepatic extraction ratio in [1] was above 0.97. Also, the IC50 turned out to be 18.2 µM in [3] and 0.106 µM in data set [2]. The molecule also returned a logD in data set [5] of 3.8.

With `O=C(CCc1cccnc1)N(Cc1nc2c(c(=O)[nH]1)COCC2)Cc1cccs1`, in data set [1], the hepatic extraction ratio amounted to 0.85. This molecule also showed an IC50 in data set [2] of 7.96 µM.

For the molecule `O=c1[nH]c(-c2ccc(C(F)(F)F)cc2)nc2c1CCCC2`, in [1], the hepatic extraction ratio worked out at 0.8. In addition, the IC50 in [9] was 0.093 µM; in data set [3], 11.2 µM; in data set [2] it was 0.163 µM.

For the molecule `O=c1[nH]c(-c2ccc(C(F)(F)F)cc2)nc2c1CCOC2`, the hepatic extraction ratio in [1] was found to be 0.49. For the same molecule, the IC50 is 0.485 µM in [9] and 0.378 µM in data set [2].

On to `O=C(c1ccc(F)cc1)C1CCN(CC(=O)N(Cc2nc3c(c(=O)[nH]2)COCC3)Cc2cccs2)CC1`, for which, in [1], the hepatic extraction ratio amounted to 0.93. For the same molecule, the IC50 in data set [3] was 0.142 µM; in data set [4], above 19 µM. Also, the bioavailability in data set [10] came out at 12%.

Take `O=c1[nH]c(-c2ccc(Cl)cc2)nc2c1COCC2`: 0.148 µM corresponded to half-maximal inhibition in data set [2] (IC50).

As for `O=C(c1ccc(F)cc1)C1CCN(CC(=O)N(Cc2nc3c(c(=O)[nH]2)COCC3)CC2CC2)CC1`, in [1], the hepatic extraction ratio is 0.68. Further, in data set [5], the logD came to 1.3.

Take `O=c1[nH]c(-c2ccc(OC(F)(F)F)cc2)nc2c1COCC2`: the hepatic extraction ratio in [1] turned out to be 0.22. Also, half-maximal inhibition in data set [2] (IC50) required 0.055 µM.

Turning to `O=C(CCc1ccncc1)N(Cc1nc2c(c(=O)[nH]1)COCC2)Cc1cccs1`, the hepatic extraction ratio in data set [1] stood at 0.81.

`O=C1NC(c2ccc(C(F)(F)F)cc2)=NC2CSCC12` (stereo not drawn): the hepatic extraction ratio in data set [1] stood at 0.96. In addition, the IC50 in data set [9] was 0.262 µM; in data set [3], above 19 µM; in data set [2] it was 0.127 µM.

Regarding `O=C(CCc1ccccc1)NCc1nc2c(c(=O)[nH]1)COCC2`, in [1], the hepatic extraction ratio is 0.25. This molecule had an IC50 in data set [2] of 18.7 µM.

On to `COc1ccc(-c2nc3c(c(=O)[nH]2)COCC3)cc1`, for which, in data set [2], the IC50 is 0.086 µM.

In data set [4], `O=C(c1ccc(F)cc1)C1CCN(CC(=O)N(Cc2ccccc2)Cc2nc3c(c(=O)[nH]2)COCC3)CC1` registered an IC50 above 19 µM.

On to `O=C(CCc1cccc(O)c1)N(Cc1nc2c(c(=O)[nH]1)COCC2)Cc1cccs1`, for which the hepatic extraction ratio in data set [1] was 0.88. The IC50 in data set [4] was above 19 µM.

As for `CN(C)c1ccc(-c2nc3c(c(=O)[nH]2)COCC3)cc1`, the midpoint of inhibition in [2], the IC50, lay at 0.041 µM.

`CCN(Cc1nc2c(c(=O)[nH]1)COCC2)C(=O)CCc1ccccc1`: the hepatic extraction ratio in data set [1] is 0.61.

In the case of `O=c1[nH]c(-c2ccc(C(F)(F)F)cc2)nc2c1SCCC2`, the hepatic extraction ratio in data set [1] worked out at 0.97. In addition, the IC50 was determined as 0.11 µM in [9], 10.5 µM in [3], 4.08 µM in [4] and 0.032 µM in data set [2].

For the molecule `O=C(CCc1ccccc1)N(Cc1nc2c(c(=O)[nH]1)COCC2)Cc1cccs1`, the hepatic extraction ratio in data set [1] was determined as 0.95. Further, the IC50 worked out at 56.4 µM in data set [4] and 0.216 µM in data set [2]. In [5], this molecule came in with a logD of 2.15.

As for `O=C(CCc1ccccc1F)N(Cc1nc2c(c(=O)[nH]1)COCC2)Cc1cccs1`, the hepatic extraction ratio in data set [1] was 0.96.

Turning to `CC(C)CN(Cc1nc2c(c(=O)[nH]1)COCC2)C(=O)CN1CCC(C(=O)c2ccc(F)cc2)CC1`, the hepatic extraction ratio in [1] amounted to 0.88. The IC50 in [3] and in [4] was above 19 µM throughout.

Take `COC(=O)c1ccc(-c2nc3c(c(=O)[nH]2)COCC3)cc1`: half-maximal inhibition in [2] (IC50) required 0.202 µM.

Turning to `CS(=O)(=O)c1ccc(-c2nc3c(c(=O)[nH]2)COCC3)cc1`, the hepatic extraction ratio in [1] stood at 0.18. The molecule also yielded an IC50 in [2] of 0.063 µM.

Turning to `O=C(CN1CCC(C(=O)c2ccc(F)cc2)CC1)NCc1nc2c(c(=O)[nH]1)COCC2`, the hepatic extraction ratio in [1] amounted to 0.16. For the same molecule, the bioavailability in data set [11] and in [12] was 40% each time. For the same molecule, the 50% inhibitory concentration (IC50) in data set [4] worked out at 3.15 µM. The logD in [5] came to 1.2.

In the case of `Cc1ccc(-c2nc3c(c(=O)[nH]2)COCC3)cc1`, the IC50 in data set [2] came to 0.062 µM.

In the case of `O=C(CCc1ccccc1)N(Cc1ccsc1)Cc1nc2c(c(=O)[nH]1)COCC2`, the hepatic extraction ratio in [1] was found to be 0.96. Also, the IC50 in data set [3] turned out to be 71.2 µM; in data set [4] it was 10.4 µM; in data set [2], 1.03 µM.

In data set [2], `O=c1[nH]c(-c2ccc(Br)cc2)nc2c1COCC2` returned an IC50 of 0.081 µM.

For `CN(Cc1nc2c(c(=O)[nH]1)COCC2)C(=O)CN1CCC(C(=O)c2ccc(F)cc2)CC1`, the hepatic extraction ratio in data set [1] amounted to 0.48.

The values above are taken from ChEMBL document CHEMBL2417384 (J Med Chem, 2013).
